Data as given in ChEMBL document CHEMBL1135262, “Noncovalent tripeptidic thrombin inhibitors incorporating amidrazone, amine and amidine functions at P1” (Bioorg Med Chem Lett, 2002).
pKi: −log10 of the molar value.

Molecular target: Prothrombin (Homo sapiens, UniProt P00734)
Experiment: Binding affinity against human thrombin

Compound: CS(=O)(=O)N[C@@H](C(=O)N1CCC[C@H]1C(=O)NCc1csc(CN)c1)C(c1ccccc1)c1ccccc1
- pKi: 8.28
